By UniProt entry, the sequences of proteins in these tests, tags left out.
UniProt P30994, whole entry, looked up: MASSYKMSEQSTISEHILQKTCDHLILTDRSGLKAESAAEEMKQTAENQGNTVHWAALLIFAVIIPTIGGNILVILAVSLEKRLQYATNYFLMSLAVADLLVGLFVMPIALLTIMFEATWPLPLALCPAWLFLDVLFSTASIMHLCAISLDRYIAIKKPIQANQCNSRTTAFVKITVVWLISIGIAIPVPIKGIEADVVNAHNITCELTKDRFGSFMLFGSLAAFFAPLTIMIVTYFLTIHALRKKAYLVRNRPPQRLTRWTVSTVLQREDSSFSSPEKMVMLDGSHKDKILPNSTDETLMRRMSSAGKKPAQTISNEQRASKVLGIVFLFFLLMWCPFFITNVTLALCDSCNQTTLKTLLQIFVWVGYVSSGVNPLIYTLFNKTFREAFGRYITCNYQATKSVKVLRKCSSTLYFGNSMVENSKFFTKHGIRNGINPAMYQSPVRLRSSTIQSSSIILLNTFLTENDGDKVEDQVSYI
UniProt P14842, whole entry, looked up: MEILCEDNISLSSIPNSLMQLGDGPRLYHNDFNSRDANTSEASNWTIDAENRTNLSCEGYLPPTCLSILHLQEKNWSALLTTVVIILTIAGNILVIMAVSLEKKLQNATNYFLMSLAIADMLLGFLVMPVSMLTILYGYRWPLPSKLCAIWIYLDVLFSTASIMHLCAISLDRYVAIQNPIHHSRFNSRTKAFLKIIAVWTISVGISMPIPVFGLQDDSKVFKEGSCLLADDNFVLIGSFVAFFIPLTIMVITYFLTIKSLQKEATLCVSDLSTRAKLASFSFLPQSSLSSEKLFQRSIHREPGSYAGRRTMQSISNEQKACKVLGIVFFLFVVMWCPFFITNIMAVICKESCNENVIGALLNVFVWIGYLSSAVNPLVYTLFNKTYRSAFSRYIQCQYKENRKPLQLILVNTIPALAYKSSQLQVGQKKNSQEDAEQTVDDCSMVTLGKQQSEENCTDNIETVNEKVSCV

According to ChEMBL document CHEMBL1125379, “Binding of phenylalkylamine derivatives at 5-HT1C and 5-HT2 serotonin receptors: evidence for a lack of selectivity” (J Med Chem, 1992):

Assays:
[1] = molecular target: T1, 5-hydroxytryptamine receptor 2C (Rattus norvegicus, UniProt P08909); assay: Binding affinity towards 5-hydroxytryptamine 1C receptor from frontal cortical regions of male Sprague-Dawley rat homogenates, using [3H]mesulergine as radioligand
T1 sequence (P08909 whole entry): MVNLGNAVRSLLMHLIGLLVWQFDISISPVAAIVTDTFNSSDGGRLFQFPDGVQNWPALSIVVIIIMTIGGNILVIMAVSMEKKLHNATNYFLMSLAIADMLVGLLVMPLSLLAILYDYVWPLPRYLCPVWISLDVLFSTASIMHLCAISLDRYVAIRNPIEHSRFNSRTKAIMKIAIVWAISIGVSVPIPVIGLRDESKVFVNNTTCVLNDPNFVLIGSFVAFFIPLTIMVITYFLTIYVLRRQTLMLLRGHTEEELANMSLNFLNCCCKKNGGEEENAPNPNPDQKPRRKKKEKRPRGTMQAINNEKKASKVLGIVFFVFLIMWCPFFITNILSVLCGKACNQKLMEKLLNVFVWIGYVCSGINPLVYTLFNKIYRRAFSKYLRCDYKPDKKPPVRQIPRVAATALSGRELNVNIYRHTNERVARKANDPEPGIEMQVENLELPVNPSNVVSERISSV
Method in brief: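 Male Sprague–Dawley rat frontal cortex membranes were washed in Tris/EDTA/MgCl2 pH 7.4 with a 37 °C preincubation and resuspended with ascorbate and pargyline. Each tube held 10 mg wet tissue, 1 nM [3H]mesulergine and 100 nM spiperone to block 5-HT2 sites. Nonspecific binding was set with 1 μM mianserin. Tubes were incubated 15 min at 37 °C, in triplicate, then filtered. Ki = IC50/(1+D*/KD*).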

[2] = molecular target: Serotonin 2 (5-HT2) receptor (Rattus norvegicus) (UniProt P30994+P08909+P14842); assay: 5-HT1C selectivity was defined as the ratio between Ki(5-HT2)/Ki(5-HT1C); type: protein assay
Method in brief: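 Ratio of Ki values from rat frontal cortex competition assays. For 5-HT2: 0.4 nM [3H]ketanserin, with 1 μM cinanserin nonspecific. For 5-HT1C: 1 nM [3H]mesulergine plus 100 nM spiperone, with 1 μM mianserin nonspecific. Both were run 15 min at 37 °C in triplicate. Ki = IC50/(1+D*/KD*).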

| SMILES | Ki [1] [nM] | Selectivity [2] |
| --- | --- | --- |
| COc1cc(C[C@@H](C)N)c(OC)cc1Br | 50 |  |
| CCc1cc(OC)c(CC(C)N)cc1OC (configuration not stated) | 101 | 1 |
| COc1cc(CC(C)N)c(OC)cc1Br (configuration not stated) [BROLAMFETAMINE] | 70 |  |
| COc1cc(OC)c(OC)cc1CC(C)N (configuration not stated) | 2670 | 0.5 |
| COc1cc(C[C@H](C)N)c(OC)cc1Br | 84 |  |
